Experimental data from patent publication US20190389933A1 (published 2019).

Target: 21480B
Experiment: Octet

B1: PD-1 (15593) (receptor)
chain: LDSPDRPWNPPTFSPALLVVTEGDNATFTCSFSNTSESFVLNWYRMSPSNQTDKLAAFPEDRSQPGQDCRFRVTQLPNGRDFHMSVVRARRNDSGTYLCGAISLAPKAQIKESLRAELRVTERRAEVPTAHPSPSPRPAGQFQ
Work on B1 yielded a Kd of 1.91 nM.
